# Membrane permeability of cyclic peptides

Values of Kelly et al. 2021, doi:10.1021/jacs.0c06115, as listed in CycPeptMPDB.

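The data file gives no further conditions (lipid, pH, time, direction or concentration), and values from different papers need not be comparable. Other peptides of the study may be missing here. Peptides that the database sets to -10, its floor, are left out.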

PAMPA is the parallel artificial membrane permeability assay, which has no cells and reads passive diffusion. P is given in units of 10^-6 cm/s (from log10 values with two decimals); larger means faster passage.

structure (SMILES)	PAMPA (10^-6 cm/s)
CC(=O)N1CCC[C@H]1C(=O)N(C)[C@@H](CC(C)C)C(=O)N[C@@H]1C(=O)N[C@@H](CC(C)C)C(=O)N[C@@H](CC(C)C)C(=O)N(C)[C@@H](CC(C)C)C(=O)N[C@@H](C)C(=O)N[C@@H](CC(C)C)C(=O)N2CCC[C@@H]2C(=O)O[C@@H]1C	5.9
CC(=O)N1CCC[C@H]1C(=O)N(C)[C@H](CC(C)C)C(=O)N[C@@H]1C(=O)N[C@@H](CC(C)C)C(=O)N[C@@H](CC(C)C)C(=O)N(C)[C@@H](CC(C)C)C(=O)N(C)[C@@H](C)C(=O)N[C@H](CC(C)C)C(=O)N2CCC[C@H]2C(=O)O[C@@H]1C	0.47
CC(=O)N1CCC[C@@H]1C(=O)N(C)[C@H](CC(C)C)C(=O)N[C@@H]1C(=O)N[C@H](CC(C)C)C(=O)N(C)[C@@H](CC(C)C)C(=O)N[C@@H](CC(C)C)C(=O)N[C@@H](C)C(=O)N[C@H](CC(C)C)C(=O)N2CCC[C@@H]2C(=O)O[C@@H]1C	0.3
CC(=O)N[C@@H]1C(=O)N2CCC[C@H]2C(=O)N(C)[C@H](CC(C)C)C(=O)N(C)[C@H](CC(C)C)C(=O)N[C@H](CC(C)C)C(=O)N(C)[C@@H](CC(C)C)C(=O)N[C@@H](C)C(=O)N[C@@H](CC(C)C)C(=O)N2CCC[C@@H]2C(=O)O[C@@H]1C	0.34
CC(=O)N1CCC[C@@H]1C(=O)N(C)[C@@H](CC(C)C)C(=O)N[C@@H]1C(=O)N(C)[C@H](CC(C)C)C(=O)N(C)[C@@H](CC(C)C)C(=O)N(C)[C@H](CC(C)C)C(=O)N[C@@H](C)C(=O)N[C@H](CC(C)C)C(=O)N2CCC[C@H]2C(=O)O[C@@H]1C	6.8
CC(=O)N1CCC[C@H]1C(=O)N(C)[C@H](CC(C)C)C(=O)N[C@@H]1C(=O)N(C)[C@@H](CC(C)C)C(=O)N(C)[C@@H](CC(C)C)C(=O)N[C@@H](CC(C)C)C(=O)N[C@@H](C)C(=O)N[C@H](CC(C)C)C(=O)N2CCC[C@@H]2C(=O)O[C@@H]1C	0.37
CC(=O)N1CCC[C@H]1C(=O)N(C)[C@@H](CC(C)C)C(=O)N[C@@H]1C(=O)N[C@@H](CC(C)C)C(=O)N[C@@H](CC(C)C)C(=O)N[C@H](CC(C)C)C(=O)N[C@@H](C)C(=O)N[C@H](CC(C)C)C(=O)N2CCC[C@H]2C(=O)O[C@@H]1C	0.036
CC(=O)N1CCC[C@H]1C(=O)N[C@@H]1C(=O)N[C@H](CC(C)C)C(=O)N[C@@H](CC(C)C)C(=O)N(C)[C@H](CC(C)C)C(=O)N[C@H](CC(C)C)C(=O)N[C@@H](C)C(=O)N[C@@H](CC(C)C)C(=O)N2CCC[C@@H]2C(=O)O[C@@H]1C	7.6
CC(=O)N1CCC[C@H]1C(=O)N(C)[C@@H](CC(C)C)C(=O)N[C@@H]1C(=O)N[C@H](CC(C)C)C(=O)N(C)[C@@H](CC(C)C)C(=O)N[C@@H](CC(C)C)C(=O)N(C)[C@H](C)C(=O)N[C@@H](CC(C)C)C(=O)N2CCC[C@H]2C(=O)O[C@@H]1C	1.7
CC(=O)N1CCC[C@@H]1C(=O)N(C)[C@@H](CC(C)C)C(=O)N[C@@H]1C(=O)N(C)[C@@H](CC(C)C)C(=O)N[C@H](CC(C)C)C(=O)N[C@H](CC(C)C)C(=O)N[C@@H](C)C(=O)N[C@@H](CC(C)C)C(=O)N2CCC[C@@H]2C(=O)O[C@@H]1C	0.23
CC(=O)N1CCC[C@H]1C(=O)N[C@@H]1C(=O)N[C@H](CC(C)C)C(=O)N(C)[C@@H](CC(C)C)C(=O)N(C)[C@@H](CC(C)C)C(=O)N(C)[C@@H](CC(C)C)C(=O)N[C@@H](C)C(=O)N[C@@H](CC(C)C)C(=O)N2CCC[C@@H]2C(=O)O[C@@H]1C	7.8
CC(=O)N1CCC[C@H]1C(=O)N(C)[C@@H](CC(C)C)C(=O)N[C@@H]1C(=O)N[C@@H](CC(C)C)C(=O)N[C@@H](CC(C)C)C(=O)N[C@H](CC(C)C)C(=O)N[C@H](C)C(=O)N[C@H](CC(C)C)C(=O)N2CCC[C@H]2C(=O)O[C@@H]1C	0.41
CC(=O)N1CCC[C@H]1C(=O)N(C)[C@@H](CC(C)C)C(=O)N[C@@H]1C(=O)N[C@@H](CC(C)C)C(=O)N[C@@H](CC(C)C)C(=O)N(C)[C@H](CC(C)C)C(=O)N[C@H](C)C(=O)N[C@@H](CC(C)C)C(=O)N2CCC[C@H]2C(=O)O[C@@H]1C	1
CC(=O)N1CCC[C@H]1C(=O)N(C)[C@@H](CC(C)C)C(=O)N[C@@H]1C(=O)N[C@@H](CC(C)C)C(=O)N(C)[C@H](CC(C)C)C(=O)N(C)[C@H](CC(C)C)C(=O)N(C)[C@@H](C)C(=O)N[C@@H](CC(C)C)C(=O)N2CCC[C@@H]2C(=O)O[C@@H]1C	1.8
CC(=O)N1CCC[C@@H]1C(=O)N(C)[C@@H](CC(C)C)C(=O)N[C@@H]1C(=O)N[C@@H](CC(C)C)C(=O)N(C)[C@H](CC(C)C)C(=O)N(C)[C@H](CC(C)C)C(=O)N(C)[C@H](C)C(=O)N[C@H](CC(C)C)C(=O)N2CCC[C@H]2C(=O)O[C@@H]1C	2.6
CC(=O)N1CCC[C@@H]1C(=O)N(C)[C@@H](CC(C)C)C(=O)N[C@@H]1C(=O)N(C)[C@H](CC(C)C)C(=O)N[C@H](CC(C)C)C(=O)N[C@H](CC(C)C)C(=O)N(C)[C@H](C)C(=O)N[C@H](CC(C)C)C(=O)N2CCC[C@@H]2C(=O)O[C@@H]1C	0.34

The 2 lowest values of PAMPA among the entries above:

structure (SMILES)	PAMPA (10^-6 cm/s)
CC(=O)N1CCC[C@H]1C(=O)N(C)[C@@H](CC(C)C)C(=O)N[C@@H]1C(=O)N[C@@H](CC(C)C)C(=O)N[C@@H](CC(C)C)C(=O)N[C@H](CC(C)C)C(=O)N[C@@H](C)C(=O)N[C@H](CC(C)C)C(=O)N2CCC[C@H]2C(=O)O[C@@H]1C	0.036
CC(=O)N1CCC[C@@H]1C(=O)N(C)[C@@H](CC(C)C)C(=O)N[C@@H]1C(=O)N(C)[C@@H](CC(C)C)C(=O)N[C@H](CC(C)C)C(=O)N[C@H](CC(C)C)C(=O)N[C@@H](C)C(=O)N[C@@H](CC(C)C)C(=O)N2CCC[C@@H]2C(=O)O[C@@H]1C	0.23